Laboratory results taken from patent publication US20130252821A1, “METHODS AND COMPOSITIONS FOR THE TREATMENT AND DIAGNOSIS OF DISEASES CHARACTERIZED BY VASCULAR LEAK, HYPOTENSION, OR A PROCOAGULANT STATE” (Beth Israel Deaconess Medical Center, Inc., priority 2005, published 2013).
“And” between values parts separate entries of the source, which are not always exact repeats. Equal entries are not always repeated. Where two headings read alike, the source gives them in different places.

Experiments:
Ang-2 = assay: Serum Ang-2 ELISA in patients receiving HD IL-2; format: in vivo, human
Experimental: For the pilot sepsis study, weekday admissions to the BIDMC intensive care unit were screened daily for a two-month period and enrolled if they met criteria for sepsis (SIRS+evidence of infection). SIRS was defined by the presence of 2 of the following 4: (1) temperature<36° C. or >38° C.; (2) heart rate>90 beats/minute; (3) respiratory rate>20 breaths/minute or PaCO2<32 mmHg; (4) white blood cell count>12,000 cells/mm', <4000 cells/mm^3, or >10% immature forms. Severe sepsis was defined by the presence of shock or multi-organ dysfunction. Serum was aliquoted in a sterile fashion into cryo-vial tubes and stored at −80° C. prior to ELISA. Stable Ang-2 signal was confirmed through several freeze-thaw cycles. All data were encrypted to protect patient privacy. For the pilot HD IL-2 study, patients receiving HD IL-2 provided informed consent permitting access to serum and clinical data which were processed as outlined above. Serum and clinical data were collected in accordance with BIDMC IRB approved protocols.
Ang-2 was measured in patient serum by sandwich ELISA using the reagents and protocol supplied with the human Ang-2 ELISA kit (R&D systems, Minneapolis, Minn.).
(§1) Over a 6 month period at Beth Israel Deaconess Medical Center we prospectively collected discarded serum and plasma samples from oncology patients receiving high dose IL-2. In our first feasibility protocol on 4 patients, we collected only Day 1—before HD IL-2 and Day 6 (after HD IL-2). After detailing these promising results, we then collected bloods before IL-2 infusion and with each successive days morning labs. Whenever possible, we also obtained discarded blood from all follow up outpatient appointments. All identifying information was removed and data was encoded to protect patient privacy. Clinical data was collected on each patient by chart review. This study was approved by the institutional IRB.
Ang-2 was measured in serum samples from patients by sandwich ELISA using the reagents and protocol supplied with the human Ang-2 ELISA kit (R&D Systems, Minneapolis, Minn., United States). Preliminary experiments confirmed the stability of Ang-2 in serum for 6-12 hours at room temperature as well as its stability through several freeze-thaw cycles.

VEGF = assay: Serial free VEGF levels in patients on HD IL-2; format: in vivo, human; conditions: 8 subjects on HD IL-2
Excerpt: as §1
Of note, four patients received an anti-VEGF agent bevacizumab two weeks before starting HD IL-2 and we also collected baseline, bevacizumab treated, and HDIL2 protocol samples on these patients.

[1] = cited from earlier work; for response rate: metastatic renal cell carcinoma and melanoma
[2] = Clinical signs of vascular leak syndrome in patients receiving HD IL-2; format: in vivo, human
Excerpt: as §1

[3] = individual patients 1-14 on HD IL-2, listed as IL2

Substance: HD IL-2: High-dose interleukin-2, FDA-approved therapy for metastatic renal cell cancer
- patients in whom Ang 2 levels rose (Ang-2; HD IL-2 administration): 14/14
- Peak Ang 2 (Ang-2; [3]): 6.9 ng/ml and 31.4 ng/ml (2×) and 18.2 ng/ml and 51.9 ng/ml and 22.3 ng/ml and 52.6 ng/ml and 41.8 ng/ml and 30.0 ng/ml and 40.0 ng/ml and 29.4 ng/ml and 28.1 ng/ml and 26.5 ng/ml and 12.6 ng/ml
- serum Ang-2 following HD IL-2 therapy (Ang-2; n=4, post-IL-2 infusion): 27.14 ± 4.06 ng/mL
- peak serum Ang-2 (Ang-2; one patient, 5-day infusion, day 6): 48.59 ng/mL
- serum Ang-2 after decline over 24 hours (Ang-2; one patient, day 7): 19.21 ng/mL
- average post treatment Ang-2 level (Ang-2; pilot study, one day after completion of IL-2 therapy): 25 ng/mL
- trend of free VEGF during infusion (VEGF): no trend
- response rate [1]: ~10%
- response rate ([1]; listed as IL2): 10-15%
- subjects developing dose-limiting vascular leak syndrome ([1]; subjects receiving HD IL-2): Up to 65%
- hypotension ([2]; 14 patients): All patients had hypotension requiring IVF boluses
- median weight gain from admission ([2]; 14 patients): 9.8%
- patients requiring supplemental oxygen ([2]; 14 patients): four
- patients requiring vasopressors in addition to IVF ([2]; 14 patients): Five of the fourteen patients
- % Weight Gain from baseline (kgs) [2, 3]: 10.7% and 9.6% and 12.0% and 10.0% and 13.4% and 7.4% and 5.5% and 8.3% (2×) and 10.2% and 13.3% and 10.5% and 7.9% and 7.3%
